# Experimental data as given in patent US5204327A, “Treatment of cerebral edema with ANP pharmaceutical compositions” (Ashi Kasei Kogyo Kabushiki Kaisha, priority 1988, dated 1993).
# How the values were obtained:
# cynomolgus monkeys = test: Subacute toxicity in cynomolgus monkeys by intravenous administrations for two weeks and two-week recovery test; type: in vivo; details: i.v. daily for 14 days
# Description: Peptide (II) having a purity of 98.3% which was obtained in Reference Example 1 was dissolved in a physiological saline to prepare two preparations having peptide (II) concentrations of 0.03 mg/ml and 0.1 mg/ml, respectively. As a control, the physiological saline was used.
# Approximately 3 to 6 year-old cynomolgus monkeys of both sexes were purchased from American Charles River Research Primates Ltd., U.S.A. The animals were bred for approximately 6 months and then observed two weeks for the quarantine and the acclimation. From the purchased monkeys, 10 male monkeys (weighing 2.15 to 3.03 kg) and 10 female monkeys (weighing 2.23 to 2.53 kg) which were healthy and in good conditions in respect of both the clinical signs and the body weight gain during the two-week observation period were selected from the purchased monkeys and used for the following experiment.
# 10 Males and 10 females were divided at random into three groups, namely, a first group to which peptide (II) is to be administered at a dosage of 5 mg/kg of body weight (4 males and 4 females), a second group to which peptide (II) is to be administered at a dosage of 1.5 mg/kg of body weight (2 males and 2 females) and a third group (control) to which physiological saline is to be administered (4 males and 4 females). With respect to the first group and the third group, 2 males and 2 females of each group were subjected to recovery testing after the administration.
# Each of the above-prepared two test drug solutions containing peptide (II) at concentrations of 0.03 mg/ml and 0.1 mg/ml, respectively, was individually administered to the monkeys of the two groups at a dosage of 5 ml/kg of body weight. That is, the peptide was administered to the monkeys of the two groups at dosages of 0.15 mg/kg and 0.5 mg/kg of body weight, respectively. To the monkeys of the remaining group, physiological saline was administered as a control at a dosage of 5 ml/kg of body weight. The administration of each of the test drug solutions and the physiological saline was conducted daily for 14 days through the median antebrachial vein of each monkey at an administration rate of 10 ml/min.
# The animals were daily observed to examine whether or not any of the animals was dead and/or any remarkable change in clinical signs had occurred. The observed results were recorded.
# The amounts of the food supplied and the food remaining were daily measured by means of a balance, and the daily food consumption per animal was calculated.
# The individual body weight was daily measured at a time between 2:00 p.m. to 4:00 p.m. by means of a balance.
# The external appearance of the animals was observed daily by naked eye. Further, the examination of the bilateral fundus oculi was carried out prior to the administration, two weeks after the administration and two weeks after the withdrawal of the administration.
# The electrocardiogram examination was carried out two weeks before the administration, two weeks after the administration and two weeks after withdrawal of the administration.
# The urine was collected from each monkey for 18 hours two weeks before the administration, two weeks after the administration and two weeks after withdrawal of the administration, and the volume thereof was measured.
# The hematological examination was carried out in the same manner as described above two weeks before the administration, two weeks after the administration and two weeks after the withdrawal of the administration.
# The blood biochemical examination was carried out in the same manner as described above two weeks before the administration, two weeks after the administration and two weeks before the withdrawal of the administration.
# The animals were exsanguinated under sodium pentobarbial anesthesia on the day after the 14th administration period in the case of the monkeys for acute toxicity test and after the administration withdrawal period in the case of the monkeys for the recovery test. […]
# [1] = test system: vasogenic cerebral edema caused by cold injury; test: Effect on experimental vasogenic cerebral edema (investigation of administration time); type: in vivo, male Crj:CD (SD) rats; details: for Water content of injured cerebral hemisphere (the mean ± standard error): peptide 100 μg/kg, glycerol solution 10 ml/kg, 24 hours after injury
# Description: Using 212 male Crj:CD (SD) rats weighing 300 to 400 g, model animals of vasogenic cerebral edema caused by cold injury were prepared according to the method of Naruse et al. (Brain and Nerve, 33 (6): 569-575 (1981).
# Peptide (II) obtained in Reference Example 1 was diluted with a physiological saline so that the peptide concentration became […]. The solution containing the peptide was continuously administered to a predetermined number of rats through the tail vein thereof in an amount of 3 ml per kg of body weight in 90 min so that the total dose of the administered peptide became 100 μg per kg of body weight. Thus, there were obtained six peptide (II)-administered groups.
# As a control (solvent), 3 ml per kg of body, weight of the physiological saline was administered to a predetermined number of rats in substantially the same manner as mentioned above, to thereby obtain six physiological saline-administered groups.
# As a control for the peptide, an aqueous 10% w/v glycerol solution containing 5% w/v fructose and 0.9% w/v sodium chloride was administered to a predetermined number of rats in substantially the same manner as mentioned above so that the total volume of the administered solution became 10 ml per kg of body weight, to thereby obtain six glycerol-administered groups.
# 24 hours after the rats were subjected to injury, rats were exsanguinated under ether anesthesia to kill them. Then, cerebra were extracted from the killed rats and each of the cerebra was individually divided into two cerebral hemispheres, namely, a hemisphere having ischemic part and a hemisphere having no ischemic part. The water content of each of the hemispheres was measured in substantially the same manner as in Example 1. In Table 3, the mean and the standard error of the water content of a brain tissue are shown together with the number of rats (n) subjected to experiment in each group.
# [2] = 0.15 and 0.5 mg/kg, two-week recovery
smiles,measurement,setting,value
CC[C@H](C)[C@@H]1NC(=O)[C@H](CCCNC(=N)N)NC(=O)[C@H](CC(=O)O)NC(=O)[C@H]([C@@H](C)CC)NC(=O)[C@H](CCCNC(=N)N)NC(=O)CNC(=O)CNC(=O)[C@H](Cc2ccccc2)NC(=O)[C@@H](NC(=O)[C@H](CO)NC(=O)[C@H](CO)NC(=O)[C@H](CCCNC(=N)N)NC(=O)[C@H](CCCNC(=N)N)NC(=O)[C@H](CC(C)C)NC(=O)[C@@H](N)CO)CSSC[C@@H](C(=O)N[C@@H](CC(N)=O)C(=O)N[C@@H](CO)C(=O)N[C@@H](Cc2ccccc2)C(=O)N[C@@H](CCCNC(=N)N)C(=O)N[C@@H](Cc2ccc(O)cc2)C(=O)O)NC(=O)CNC(=O)[C@H](CC(C)C)NC(=O)CNC(=O)[C@H](CO)NC(=O)[C@H](CCC(N)=O)NC(=O)[C@H](C)NC(=O)CNC1=O [Peptide (II)],Blood biochemical examination,cynomolgus monkeys; [2],No remarkable change
same,Change in body weight,cynomolgus monkeys; [2],No remarkable change
same,Clinical signs,cynomolgus monkeys; [2],No remarkable change
same,Clinical signs: death of animals,cynomolgus monkeys; [2],No dead animal
same,Electrocardiogram examination,cynomolgus monkeys; [2],No remarkable change
same,Food consumption,cynomolgus monkeys; [2],No remarkable change
same,Hematological examination,cynomolgus monkeys; [2],No remarkable change
same,Measurement of organ weight,cynomolgus monkeys; [2],No remarkable change
same,Ophthalmic examination,cynomolgus monkeys; [2],No remarkable change
same,Patho-anatomical examination,cynomolgus monkeys; [2],No remarkable change
same,Urinalysis,cynomolgus monkeys; [2],No remarkable change
same,Histopathological examination,cynomolgus monkeys; highest dosage 0.5 mg/kg,No remarkable change
same,"increase in water content of a cerebral hemisphere, compared to physiological saline-administered groups",[1]; administered 6 hours and 22 hours after the making of cold injury,not significantly inhibited
same,"increase in water content of the injured cerebral hemisphere, compared to physiological saline-administered groups","[1]; administered just before, during, just after or three hours after the making of cold injury",significantly inhibited
same,Water content of injured cerebral hemisphere (the mean ± standard error),[1]; administration 3 hours after the making of cold injury,80.49 ± 0.18
same,Water content of injured cerebral hemisphere (the mean ± standard error),[1]; administration 6 hours after the making of cold injury,80.85 ± 0.13
same,Water content of injured cerebral hemisphere (the mean ± standard error),[1]; administration 22 hours after the making of cold injury,80.66 ± 0.17
same,Water content of injured cerebral hemisphere (the mean ± standard error),[1]; administration during the making of cold injury,80.44 ± 0.09
same,Water content of injured cerebral hemisphere (the mean ± standard error),[1]; administration just after the making of cold injury,80.76 ± 0.07
same,Water content of injured cerebral hemisphere (the mean ± standard error),[1]; administration just before the making of cold injury,80.78 ± 0.12
